Assay results: US20220125778A1 (priority 2019, published 2022)

Sequences of proteins named here, by UniProt entry; tags and fusion partners are left off. A change or cut given only in a name is not applied to a line headed by its entry.
UniProt P05804: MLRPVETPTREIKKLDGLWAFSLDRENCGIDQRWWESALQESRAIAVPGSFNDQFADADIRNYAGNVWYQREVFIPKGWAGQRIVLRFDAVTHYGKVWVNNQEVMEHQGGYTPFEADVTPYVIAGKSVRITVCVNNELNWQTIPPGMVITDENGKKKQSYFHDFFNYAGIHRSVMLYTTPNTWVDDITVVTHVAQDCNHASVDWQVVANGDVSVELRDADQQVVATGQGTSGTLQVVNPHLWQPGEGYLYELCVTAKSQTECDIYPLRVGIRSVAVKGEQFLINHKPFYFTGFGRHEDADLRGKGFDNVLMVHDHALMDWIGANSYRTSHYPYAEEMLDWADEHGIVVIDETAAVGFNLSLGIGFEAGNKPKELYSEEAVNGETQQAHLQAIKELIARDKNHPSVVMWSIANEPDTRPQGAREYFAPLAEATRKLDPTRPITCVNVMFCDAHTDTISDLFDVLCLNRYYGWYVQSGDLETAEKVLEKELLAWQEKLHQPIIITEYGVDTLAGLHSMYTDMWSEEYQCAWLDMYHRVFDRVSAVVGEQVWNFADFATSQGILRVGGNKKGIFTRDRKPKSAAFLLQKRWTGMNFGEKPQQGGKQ

Molecular target: Purified bacterial β-glucuronidases (Purified GUS) (UniProt P05804)
Assay: Purified bacterial β-glucuronidase (Purified GUS) activity assay with PNPG substrate
Type: biochemical
Settings: Table 2

| SMILES | IC50 |
| --- | --- |
| Cc1cc(C)c2[nH]c(=O)c(CN(CCO)S(=O)(=O)Cc3cccc(Br)c3)cc2c1 | 3.26 µM |
| Cc1cc(C)c2[nH]c(=O)c(C(C)N(CCO)C(=O)Nc3cccc(C(C)C)c3)cc2c1 (stereo not drawn) | 6.73 µM |
| Cc1cc(C)c2[nH]c(=O)c(CN(CCO)C(=O)Nc3ccc(OC(F)(F)F)cc3)cc2c1 | > 100 µM |
| Cc1cc(C)c2[nH]c(=O)c(CN(CCO)C(=O)Cc3ccccc3)cc2c1 | 8.56 µM |
| Cc1cc(C)c2[nH]c(=O)c(CN(CCO)C(=O)Nc3ccccc3C(F)(F)F)cc2c1 | > 100 µM |
| Cc1cc(C)c2[nH]c(=O)c(CN(CCO)C(=O)C(C)c3ccccc3Br)cc2c1 (stereo not drawn) | 10.9 µM |
| C#Cc1cc(NC(=O)N(CCO)C(C)c2cc3cc(C)cc(C)c3[nH]c2=O)ccc1F (stereo not drawn) | 1.1 µM |
| Cc1cc(C)c2[nH]c(=O)c(CN(CCO)C(=O)c3cccc(I)c3)cc2c1 | > 50 µM |
| Cc1cc(C)c2[nH]c(=O)c(CN(CCO)C(=O)c3cccc(Br)c3)cc2c1 | > 50 µM |
| Cc1cc(C)c2[nH]c(=O)c(CN(CCO)C(=O)Nc3cccc(C(F)(F)F)c3)cc2c1 | > 100 µM |
| Cc1cc(C)c2nc(Cl)c(C(C)N(CCO)C(=O)Nc3ccccc3C(C)C)cc2c1 (stereo not drawn) | > 25 µM |
| COc1ccc(Cl)c(NC(=O)N(CCO)Cc2cc3cc(C)cc(C)c3[nH]c2=O)c1 | 3.6 µM |
| Cc1cc(C)c2[nH]c(=O)c(CN(CCO)C(=O)c3ccccc3Br)cc2c1 | 12.8 µM |
| COc1ccccc1NC(=O)N(CCO)Cc1cc2cc(C)cc(C)c2[nH]c1=O | 2.43 µM |
| COc1cccc(NC(=O)N(CCO)C(C)c2cc3cc(C)cc(C)c3[nH]c2=O)c1 (stereo not drawn) | 3.71 µM |
| Cc1cc(C)c2[nH]c(=O)c(CN(CCO)C(=O)Cc3ccccc3I)cc2c1 | 0.81 µM |
| Cc1cc(C)c2[nH]c(=O)c(CN(CCO)C(=O)Cc3ccccc3C(C)(C)C)cc2c1 | 0.905 µM |
| Cc1cc(C)c2[nH]c(=O)c(CN(CCO)C(=O)Nc3ccc(C(F)(F)F)cc3)cc2c1 | > 100 µM |

| SMILES | IC50 |
| --- | --- |
| COc1ccc(NC(=O)N(CCO)Cc2cc3cc(C)cc(C)c3[nH]c2=O)cc1 | 2.11 µM |
| Cc1cc(C)c2[nH]c(=O)c(CN(CCO)C(=O)c3ccccc3I)cc2c1 | > 50 µM |
| Cc1cccc(NC(=O)N(CCO)C(C)c2cc3cc(C)cc(C)c3[nH]c2=O)c1 (stereo not drawn) | 1.66 µM |
| Cc1cc(C)c2[nH]c(=O)c(CN(CCO)C(=O)Nc3ccc(Br)cc3)cc2c1 | 1.8 µM |
| O=c1[nH]c2c(Br)cc(Br)cc2cc1CO | > 100 µM |
| O=Cc1cc2cc(Br)cc(Br)c2[nH]c1=O | > 100 µM |
| Cc1cc(C)c2[nH]c(=O)c(CN(CCO)C(=O)Nc3c(C)cccc3C)cc2c1 | 0.54 µM |
| Cc1cc(C)c2[nH]c(=O)c(CN(CCO)C(=O)Nc3cccc(OC(F)(F)F)c3)cc2c1 | 24.3 µM |
| Cc1cc(C)c2[nH]c(=O)c(CN(CCO)C(=O)Cc3ccccc3Cl)cc2c1 [Ex. 8, 2-(2-chlorophenyl)-N-[(6,8-dimethyl-2-oxo-1H-quinolin-3-yl)methyl]-N-(2-hydroxyethyl)acetamide] | 0.575 µM |
| Cc1cc(C)c2[nH]c(=O)c(CN(CCO)C(=O)Cc3cccc(S(C)(=O)=O)c3)cc2c1 | 21.9 µM |
| CCOc1ccc(NC(=O)N(CCO)Cc2cc3cc(C)cc(C)c3[nH]c2=O)cc1 | 2.73 µM |
| Cc1cc(C)c2[nH]c(=O)c(CN(CCO)C(=O)Cc3ccccc3Br)cc2c1 [Ex. 4, 2-(2-bromophenyl)-N-[(6,8-dimethyl-2-oxo-1H-quinolin-3-yl)methyl]-N-(2-hydroxyethyl)acetamide] | 0.965 µM |
| COc1ccc(Br)c(CC(=O)N(CCO)Cc2cc3cc(C)cc(C)c3[nH]c2=O)c1 [Ex. 12, 2-(2-bromo-5-methoxy-phenyl)-N-[(6,8-dimethyl-2-oxo-1H-quinolin-3-yl)methyl]-N-(2-hydroxyethyl)acetamide] | 0.935 µM |
| COc1ccc(CC(=O)N(CCO)Cc2cc3cc(C)cc(C)c3[nH]c2=O)c(Cl)c1 | 2.87 µM |
| COc1ccc(Br)c(NC(=O)N(CCO)Cc2cc3cc(C)cc(C)c3[nH]c2=O)c1 | 3.31 µM |
| Cc1cc(C)c2[nH]c(=O)c(CN(CCO)C(=O)Nc3ccccc3C)cc2c1 | 2.17 µM |
| Cc1cc(C)c2[nH]c(=O)c(CN(CCO)C(=O)Cc3ccccc3C)cc2c1 | 4.96 µM |
| Cc1cc(C)c2[nH]c(=O)c(CN(CCO)C(=O)Nc3ccc(C(C)C)cc3)cc2c1 | 2.55 µM |
